The values that follow come from ChEMBL document CHEMBL1146689, “The design and synthesis of a novel quinolizidine template for potent opioid and opioid receptor-like (ORL1, NOP) receptor ligands” (2004).

Chains of the proteins cited; added tags and fusions are not shown. Lines headed by an entry give the natural chain unless they say otherwise; changes in a name come on top.
UniProt P41146: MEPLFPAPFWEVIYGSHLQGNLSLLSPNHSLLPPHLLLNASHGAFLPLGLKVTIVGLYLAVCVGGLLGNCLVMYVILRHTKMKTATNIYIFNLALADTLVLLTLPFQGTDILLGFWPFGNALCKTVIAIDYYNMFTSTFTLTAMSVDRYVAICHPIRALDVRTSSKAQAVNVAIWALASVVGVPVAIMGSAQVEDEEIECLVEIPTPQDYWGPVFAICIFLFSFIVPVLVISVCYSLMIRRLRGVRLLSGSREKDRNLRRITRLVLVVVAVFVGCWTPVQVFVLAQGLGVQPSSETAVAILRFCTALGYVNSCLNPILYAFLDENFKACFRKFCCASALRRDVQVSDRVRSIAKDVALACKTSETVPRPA
UniProt P41145: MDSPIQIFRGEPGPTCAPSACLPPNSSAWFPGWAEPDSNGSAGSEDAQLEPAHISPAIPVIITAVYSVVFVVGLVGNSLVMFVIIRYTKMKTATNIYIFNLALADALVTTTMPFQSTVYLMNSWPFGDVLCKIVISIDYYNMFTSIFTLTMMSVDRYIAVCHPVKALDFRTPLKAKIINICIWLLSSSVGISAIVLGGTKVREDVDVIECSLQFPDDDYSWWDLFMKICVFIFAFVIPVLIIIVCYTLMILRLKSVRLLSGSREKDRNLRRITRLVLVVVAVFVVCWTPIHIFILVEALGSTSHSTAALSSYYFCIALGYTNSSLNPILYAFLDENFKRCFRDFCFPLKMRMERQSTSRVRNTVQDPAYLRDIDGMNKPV

Test [1] has as its target Nociceptin receptor (Homo sapiens) (UniProt P41146). Nature of the test: Stimulation of [35S]GTP-gamma-S, binding to human NOP receptor in cell membrane.
Test [2] deals with Kappa-type opioid receptor (Homo sapiens) (UniProt P41145). Nature of the test: Stimulation of [35S]GTP-gamma-S, binding to human opioid receptor kappa 1 in cell membrane. (In general: GTPγS is a poorly hydrolysed GTP analogue; its binding reports G protein activation.)

Turning to `Oc1nc2ccccc2n1[C@@H]1CCN2[C@H](CCC[C@H]2C2CCCCC2)C1`, the results for the Stimulation in test [1] and in test [2] were 51% and 43%, respectively.
